From publication PMC8513079 (Molecules, 2021)

Amino acid sequences for entries named in this document (tags omitted).
UniProt P41145, whole entry: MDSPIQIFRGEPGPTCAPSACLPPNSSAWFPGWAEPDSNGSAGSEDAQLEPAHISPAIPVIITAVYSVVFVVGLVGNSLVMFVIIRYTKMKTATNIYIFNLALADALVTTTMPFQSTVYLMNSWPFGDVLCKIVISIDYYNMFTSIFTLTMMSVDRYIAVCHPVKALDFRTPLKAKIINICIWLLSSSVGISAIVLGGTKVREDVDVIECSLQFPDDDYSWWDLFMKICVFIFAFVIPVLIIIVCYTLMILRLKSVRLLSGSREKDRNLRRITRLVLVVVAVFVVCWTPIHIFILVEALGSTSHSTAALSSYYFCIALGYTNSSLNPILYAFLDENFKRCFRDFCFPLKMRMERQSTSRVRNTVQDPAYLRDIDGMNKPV

Molecular target: KOR (Halotag-KOR) in HEK293 cells (Homo sapiens, UniProt P41145)
Assay: cADDis cAMP assay, KOR
Assay type: cell-based

Question: Which “Emax, cAMP assay, KOR (Table 1)” value does the source give for `CN1CC[C@]23Cc4nc5ccccc5cc4C[C@@]2(O)[C@H]1Cc1ccc(O)cc13` here?
Answer: 102.5 ± 9.5%

Question: And the “pEC50, cAMP assay, KOR (Table 1)” value?
Answer: 6.5 ± 0.2 M

Question: What about the “effect through G-protein-mediated pathway (cAMP), KOR, in words” value (cADDis cAMP assay, HEK293 Halotag-KOR) of the same compound?
Answer: full agonistic effects on both MOR and KOR
